Assay results taken from patent US5902814A, “Spiro-Azabicyclic Compounds useful in therapy” (dated 1999).

Sequences of proteins named here, by UniProt entry; tags and fusion partners are left off. Residues count along the entry.
UniProt P09483, 31-630 limits assumed: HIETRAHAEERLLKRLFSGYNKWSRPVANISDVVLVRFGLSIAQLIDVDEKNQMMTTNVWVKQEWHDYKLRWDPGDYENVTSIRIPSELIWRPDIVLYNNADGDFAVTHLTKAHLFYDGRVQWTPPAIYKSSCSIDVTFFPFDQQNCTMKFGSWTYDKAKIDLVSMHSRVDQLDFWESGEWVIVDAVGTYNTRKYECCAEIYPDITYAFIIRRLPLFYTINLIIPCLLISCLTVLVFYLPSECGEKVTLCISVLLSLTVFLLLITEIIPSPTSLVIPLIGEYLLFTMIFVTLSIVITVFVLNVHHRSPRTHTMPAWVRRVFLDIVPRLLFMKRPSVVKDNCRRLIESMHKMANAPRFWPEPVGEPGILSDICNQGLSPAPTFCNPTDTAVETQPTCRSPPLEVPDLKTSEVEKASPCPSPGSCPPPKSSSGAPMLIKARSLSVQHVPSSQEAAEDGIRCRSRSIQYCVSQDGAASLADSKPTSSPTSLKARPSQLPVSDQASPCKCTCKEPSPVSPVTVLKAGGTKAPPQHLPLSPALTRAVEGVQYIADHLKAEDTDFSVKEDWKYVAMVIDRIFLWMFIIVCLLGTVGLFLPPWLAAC
UniProt P12390, 25-500 limits assumed: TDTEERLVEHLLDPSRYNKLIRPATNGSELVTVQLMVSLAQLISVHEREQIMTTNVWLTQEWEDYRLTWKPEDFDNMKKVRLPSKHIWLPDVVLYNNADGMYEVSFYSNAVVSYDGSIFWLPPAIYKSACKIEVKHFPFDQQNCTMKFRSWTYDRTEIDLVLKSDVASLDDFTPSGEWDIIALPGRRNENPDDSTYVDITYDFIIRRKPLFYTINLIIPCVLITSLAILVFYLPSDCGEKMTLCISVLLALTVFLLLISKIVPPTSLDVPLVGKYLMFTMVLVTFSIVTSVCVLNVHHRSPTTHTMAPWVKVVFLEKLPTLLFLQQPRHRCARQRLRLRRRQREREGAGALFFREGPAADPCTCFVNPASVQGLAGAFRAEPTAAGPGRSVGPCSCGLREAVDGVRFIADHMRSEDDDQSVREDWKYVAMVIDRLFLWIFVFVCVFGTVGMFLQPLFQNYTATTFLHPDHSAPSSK

Target: α4 nAChR subtype (Rattus norvegicus, UniProt P09483+P12390)
Test: Test B: [3H]-(-)-nicotine binding (affinity to the α4 nAChR subtype)
Details: ratio Ki Test B (α4) / Ki Test A (α7)

## CN1CC2(CN3CCC2CC3)OC1=O (stereo not shown)
  Ki values in Test B relative to those given in Test A (times greater): at least 1.6 times
